The values that follow are results of earlier work, collected in patent publication US9547007B2, “Methods and compositions for in-vivo enzyme capture” (The Trustees of the University of Pennslyvania, priority 2009, dated 2017).

For the series the following is noted: at 37° C.; internalization into cells.

Take Nδ13-biotinyl-transportan: the “time at which the maximal intracellular contraction is reached” value is given as “about 20 min”.
